Columns and labels:
muscarinic M3 receptor = muscarinic M3 receptor (Canis lupus familiaris, UniProt A0A8I3N190); conditions: anesthetized beagle dogs, inhalation of 1 mg/ml for 10 minutes
[1] = target: m3 muscarinic acetylcholine receptor (Homo sapiens, UniProt P20309); assay: Inhibition of binding of [3H]-N-methylscopolamine to muscarinic m3 receptor
[2] = target: airway M3 receptor in isolated rat trachea (Rattus norvegicus, UniProt P08483)
[3] = target: M2 receptor in isolated rat right atrium (Rattus norvegicus, UniProt P10980); conditions: read-out: KB Right atrium M2, carbachol dose-response shift
[4] = target: m2 muscarinic acetylcholine receptor (Homo sapiens, UniProt P08172); assay: Inhibition of binding of [3H]-N-methylscopolamine to muscarinic m2 receptor; conditions: read-out: Ki m2; CHO cells expressing m2 receptor, 0.2 nM [3H]-N-methylscopolamine

The chains behind the UniProt entries cited, without tags or fusion partners. Residues count along the entry.
UniProt A0A8I3N190, 1-590: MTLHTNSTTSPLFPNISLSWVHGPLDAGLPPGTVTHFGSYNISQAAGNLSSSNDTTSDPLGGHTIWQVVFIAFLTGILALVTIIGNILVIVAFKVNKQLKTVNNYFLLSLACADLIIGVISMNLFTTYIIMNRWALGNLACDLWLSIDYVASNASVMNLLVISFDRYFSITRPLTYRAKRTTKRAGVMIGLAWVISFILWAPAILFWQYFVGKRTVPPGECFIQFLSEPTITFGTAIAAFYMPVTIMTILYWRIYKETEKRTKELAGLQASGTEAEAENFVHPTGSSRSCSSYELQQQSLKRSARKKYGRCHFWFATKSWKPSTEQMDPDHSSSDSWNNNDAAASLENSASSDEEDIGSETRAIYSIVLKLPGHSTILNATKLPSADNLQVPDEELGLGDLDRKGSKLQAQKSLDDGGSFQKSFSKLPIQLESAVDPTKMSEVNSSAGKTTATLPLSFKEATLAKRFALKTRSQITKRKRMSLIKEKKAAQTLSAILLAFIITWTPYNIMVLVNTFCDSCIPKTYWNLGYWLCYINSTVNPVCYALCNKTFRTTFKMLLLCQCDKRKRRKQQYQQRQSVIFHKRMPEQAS
UniProt P20309, whole entry, looked up: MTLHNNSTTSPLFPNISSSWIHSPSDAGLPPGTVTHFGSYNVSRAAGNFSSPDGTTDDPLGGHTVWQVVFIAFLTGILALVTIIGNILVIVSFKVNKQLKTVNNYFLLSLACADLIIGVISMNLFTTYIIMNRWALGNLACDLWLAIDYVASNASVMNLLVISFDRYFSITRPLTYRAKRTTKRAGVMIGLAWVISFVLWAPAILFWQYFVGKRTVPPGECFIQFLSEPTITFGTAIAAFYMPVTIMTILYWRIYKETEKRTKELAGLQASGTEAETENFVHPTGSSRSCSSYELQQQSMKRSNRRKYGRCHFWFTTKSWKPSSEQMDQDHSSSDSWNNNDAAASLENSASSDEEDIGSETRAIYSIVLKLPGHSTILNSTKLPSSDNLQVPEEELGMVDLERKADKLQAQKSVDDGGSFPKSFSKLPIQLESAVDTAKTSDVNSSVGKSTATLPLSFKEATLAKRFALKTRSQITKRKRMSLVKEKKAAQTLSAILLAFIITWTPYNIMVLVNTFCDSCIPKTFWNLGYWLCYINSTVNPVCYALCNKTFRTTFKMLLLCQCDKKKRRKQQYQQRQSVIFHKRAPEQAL
UniProt P08483, whole entry, looked up: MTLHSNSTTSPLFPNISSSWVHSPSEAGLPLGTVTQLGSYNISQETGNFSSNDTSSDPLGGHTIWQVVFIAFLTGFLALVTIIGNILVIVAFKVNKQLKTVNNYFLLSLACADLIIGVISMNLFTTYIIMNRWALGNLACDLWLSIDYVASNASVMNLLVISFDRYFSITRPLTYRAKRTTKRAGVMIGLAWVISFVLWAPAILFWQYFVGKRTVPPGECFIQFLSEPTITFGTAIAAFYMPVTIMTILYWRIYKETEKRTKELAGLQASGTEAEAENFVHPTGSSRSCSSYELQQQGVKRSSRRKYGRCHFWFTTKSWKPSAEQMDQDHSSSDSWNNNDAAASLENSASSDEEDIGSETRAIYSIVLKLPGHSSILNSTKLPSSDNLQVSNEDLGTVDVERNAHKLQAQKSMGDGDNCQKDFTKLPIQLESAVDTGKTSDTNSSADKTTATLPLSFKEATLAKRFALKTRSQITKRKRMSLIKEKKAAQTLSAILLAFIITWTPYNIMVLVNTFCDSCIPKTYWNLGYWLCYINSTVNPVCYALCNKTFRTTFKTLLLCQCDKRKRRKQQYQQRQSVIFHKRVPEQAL
UniProt P10980, whole entry, looked up: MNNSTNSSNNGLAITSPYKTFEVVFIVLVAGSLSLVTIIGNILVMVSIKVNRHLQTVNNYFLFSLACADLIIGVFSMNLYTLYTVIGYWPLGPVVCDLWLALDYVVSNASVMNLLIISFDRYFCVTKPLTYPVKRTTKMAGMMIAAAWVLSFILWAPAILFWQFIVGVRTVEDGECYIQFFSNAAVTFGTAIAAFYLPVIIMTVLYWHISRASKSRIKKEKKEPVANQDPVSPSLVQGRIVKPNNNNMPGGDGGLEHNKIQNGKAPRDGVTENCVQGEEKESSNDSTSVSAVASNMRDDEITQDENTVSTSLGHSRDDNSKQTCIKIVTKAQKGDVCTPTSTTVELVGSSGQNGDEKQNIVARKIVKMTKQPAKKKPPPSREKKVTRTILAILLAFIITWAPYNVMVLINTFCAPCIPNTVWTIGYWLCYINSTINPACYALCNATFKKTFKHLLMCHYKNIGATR
UniProt P08172, whole entry, looked up: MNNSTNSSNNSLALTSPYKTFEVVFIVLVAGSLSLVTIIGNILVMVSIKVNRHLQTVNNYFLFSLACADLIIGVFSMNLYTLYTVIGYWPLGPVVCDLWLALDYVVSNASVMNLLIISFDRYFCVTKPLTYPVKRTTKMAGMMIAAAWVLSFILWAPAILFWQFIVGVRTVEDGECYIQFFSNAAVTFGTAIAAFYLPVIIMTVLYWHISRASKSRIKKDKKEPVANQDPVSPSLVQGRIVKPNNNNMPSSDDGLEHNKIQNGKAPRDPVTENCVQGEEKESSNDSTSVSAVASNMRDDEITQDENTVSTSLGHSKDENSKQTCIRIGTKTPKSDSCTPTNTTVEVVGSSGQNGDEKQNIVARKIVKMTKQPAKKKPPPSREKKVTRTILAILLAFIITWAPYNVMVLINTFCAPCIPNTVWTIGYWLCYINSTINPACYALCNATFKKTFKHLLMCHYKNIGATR

SMILES	Shift Value 5 minutes after (muscarinic M3 receptor; methacholine threshold 5 minutes after)	Shift Value 4 hours after (muscarinic M3 receptor; methacholine threshold 4 hours after)	Shift Value 24 hours after (muscarinic M3 receptor; methacholine threshold 24 hours after)	m2/m3 (ratio of Ki) ([1]; selectivity ratio Ki m2 / Ki m3)	M2/M3 (ratio of KB) ([2]; selectivity ratio KB right atrium M2 / KB trachea M3)	Ki ([1]; read-out: Ki m3, CHO cells expressing m3 receptor, 0.2 nM [3H]-N-methylscopolamine)	Kb [3]	Kb ([2]; read-out: KB Trachea M3, isolated rat trachea, carbachol dose-response shift)	Ki [4]
C[N+]1(C)CCC(OC(=O)[C@](O)(c2ccc(Cl)cc2)[C@@H]2CCC(F)(F)C2)CC1.[Br-]	>30	>30	5.8	68.5	218				
C[N+]1(C)CCC(OC(=O)[C@](O)(c2ccc(Cl)cc2)[C@@H]2CCC(F)(F)C2)CC1						0.425 nM	9.6 nM	0.044 nM	29.1 nM

Reference: patent US7504432B2 (priority 2000, dated 2009)
